Patent publication US20180325997A1

Biological target: hTERT (human telomerase reverse transcriptase) (human) (UniProt O14746)
Experiment: cell-based or functional assay

relative telomerase activity (TRAPEZE kit, real time PCR) in transfected MRC 5 cells against non-transfected cells: 98 % elevation
Substance: LRP::FLAG protein (LRP as per SEQ ID NO: 2 and FLAG as per SEQ ID NO: 3) (from UniProt P14206 1-295) (receptor)
